Laboratory results published in patent US20070149546A1, “4-Anilino-quinazoline derivatives as antiproliferative agents” (priority 2003, published 2007).

Sequences of proteins named here, by UniProt entry; tags and fusion partners are left off. Residues count along the entry.
UniProt P04626, 23-1255: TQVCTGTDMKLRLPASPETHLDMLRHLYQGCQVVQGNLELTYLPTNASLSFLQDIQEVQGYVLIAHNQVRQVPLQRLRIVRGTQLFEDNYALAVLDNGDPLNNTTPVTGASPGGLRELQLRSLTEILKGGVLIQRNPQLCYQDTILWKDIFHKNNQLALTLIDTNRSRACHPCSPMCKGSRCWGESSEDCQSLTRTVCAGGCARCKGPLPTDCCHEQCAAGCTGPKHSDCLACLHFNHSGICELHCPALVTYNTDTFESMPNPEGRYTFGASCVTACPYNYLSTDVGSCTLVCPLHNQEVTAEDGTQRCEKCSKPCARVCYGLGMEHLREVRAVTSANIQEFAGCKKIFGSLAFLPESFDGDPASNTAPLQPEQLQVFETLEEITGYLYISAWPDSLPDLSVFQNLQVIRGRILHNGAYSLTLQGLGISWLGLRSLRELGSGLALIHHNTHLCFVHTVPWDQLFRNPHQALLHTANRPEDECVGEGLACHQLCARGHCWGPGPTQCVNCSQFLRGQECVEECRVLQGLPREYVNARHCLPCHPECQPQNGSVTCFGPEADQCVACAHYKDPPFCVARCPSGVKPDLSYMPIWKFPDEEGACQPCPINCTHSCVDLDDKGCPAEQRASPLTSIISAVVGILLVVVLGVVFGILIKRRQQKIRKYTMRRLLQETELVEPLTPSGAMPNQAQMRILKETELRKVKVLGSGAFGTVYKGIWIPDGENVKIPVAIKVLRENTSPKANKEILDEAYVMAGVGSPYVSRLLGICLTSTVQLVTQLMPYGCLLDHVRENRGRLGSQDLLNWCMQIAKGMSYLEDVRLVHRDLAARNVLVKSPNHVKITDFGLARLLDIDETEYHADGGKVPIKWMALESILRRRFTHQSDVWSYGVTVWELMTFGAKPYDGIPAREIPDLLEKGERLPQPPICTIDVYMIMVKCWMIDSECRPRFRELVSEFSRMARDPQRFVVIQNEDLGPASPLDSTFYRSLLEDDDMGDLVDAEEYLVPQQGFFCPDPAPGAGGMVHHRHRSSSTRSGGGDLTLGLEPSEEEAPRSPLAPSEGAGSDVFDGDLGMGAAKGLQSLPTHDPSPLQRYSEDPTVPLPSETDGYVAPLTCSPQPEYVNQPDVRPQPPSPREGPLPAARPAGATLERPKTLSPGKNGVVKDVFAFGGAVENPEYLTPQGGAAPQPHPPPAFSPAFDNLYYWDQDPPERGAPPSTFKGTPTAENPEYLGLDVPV
UniProt P04626, 676-1255 limits assumed: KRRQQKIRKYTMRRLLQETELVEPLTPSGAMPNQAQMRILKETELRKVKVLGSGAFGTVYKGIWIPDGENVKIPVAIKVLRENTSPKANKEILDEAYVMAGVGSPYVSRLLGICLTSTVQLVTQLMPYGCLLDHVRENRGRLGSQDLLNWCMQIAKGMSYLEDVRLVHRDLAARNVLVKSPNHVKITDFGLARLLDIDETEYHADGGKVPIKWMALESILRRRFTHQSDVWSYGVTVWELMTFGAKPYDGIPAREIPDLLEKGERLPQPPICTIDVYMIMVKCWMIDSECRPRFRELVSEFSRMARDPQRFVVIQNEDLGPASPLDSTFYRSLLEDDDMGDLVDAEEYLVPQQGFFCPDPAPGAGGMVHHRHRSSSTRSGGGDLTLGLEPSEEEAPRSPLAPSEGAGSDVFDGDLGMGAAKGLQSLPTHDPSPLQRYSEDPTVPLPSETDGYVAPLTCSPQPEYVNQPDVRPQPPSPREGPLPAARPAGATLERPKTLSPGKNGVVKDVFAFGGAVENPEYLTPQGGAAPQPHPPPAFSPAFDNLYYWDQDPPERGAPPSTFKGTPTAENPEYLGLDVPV
UniProt P00533, 669-1210 limits assumed: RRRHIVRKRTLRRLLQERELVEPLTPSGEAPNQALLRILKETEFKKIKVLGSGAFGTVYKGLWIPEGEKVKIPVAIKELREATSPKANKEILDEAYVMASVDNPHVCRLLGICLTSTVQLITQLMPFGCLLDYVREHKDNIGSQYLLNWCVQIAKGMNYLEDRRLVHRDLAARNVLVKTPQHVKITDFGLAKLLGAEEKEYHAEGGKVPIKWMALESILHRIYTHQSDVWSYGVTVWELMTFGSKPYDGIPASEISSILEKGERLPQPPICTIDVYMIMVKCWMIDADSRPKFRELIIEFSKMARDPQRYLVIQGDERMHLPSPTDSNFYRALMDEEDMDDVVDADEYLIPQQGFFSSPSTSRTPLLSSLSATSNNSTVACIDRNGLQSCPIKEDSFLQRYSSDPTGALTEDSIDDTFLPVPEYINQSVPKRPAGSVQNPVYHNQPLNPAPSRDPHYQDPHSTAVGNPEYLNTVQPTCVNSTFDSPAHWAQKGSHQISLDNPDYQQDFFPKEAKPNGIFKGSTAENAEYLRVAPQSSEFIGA

How the values were obtained:
erbB2 [1] = molecular target: T1, erbB2 (Homo sapiens, UniProt P04626); assay: Clone 24 phospho-erbB2 cell assay, Test (e); assay type: cell-based; parameters: a cell line that overexpresses full length wild type erbB2 protein; expressed in transfected cells; host or cells: MCF7 (breast carcinoma) derived Clone 24 cells
Experimental: The cells were resuspended in Growth Medium.
3 days later, Growth Medium was removed from the wells and replaced with 100 ul Assay Medium (phenol red free DM , 2 mM glutamine, 1.2 mg/ml G418) either with or without erbB inhibitor compound. Plates were returned to the incubator for 4 hours and then 20 μl of 20% formaldehyde solution in PBS was added to each well and the plate was left at room temperature for 30 minutes. This fixative solution was removed with a multichannel pipette, 100 μl of PBS was added to each well and then removed with a multichannel pipette and then 50 μl PBS was added to each well. Plates were then sealed and stored for up to 2 weeks at 4° C.
Immunostaining was performed at room temperature. […]
The Fluorescence signal is each well was measured using an Acumen Explorer Instrument (Acumen Bioscience Ltd.), a plate reader that can be used to rapidly quantitate features of images generated by laser-scanning. […] Fluorescence dose response data obtained with each compound was exported into a suitable software package (such as Origin) to perform curve fitting analysis. Inhibition of erbB2 phosphorylation was expressed as an IC50 value.

erbB2 [2] = molecular target: T1, erbB2; assay: Protein tyrosine kinase phosphorylation assay, Test (a): erbB2; assay type: biochemical; parameters: Recombinant intracellular fragments of EGFR and erbB2; made in house; host or cells: baculovirus/Sf21 insect cells
Experimental: (§1) This test measures the ability of a test compound to inhibit the phosphorylation of a tyrosine containing polypeptide substrate by an enzyme selected from the EGFR kinase and erbB2 kinase.
(§2) Recombinant intracellular fragments of EGFR and erbB2 (accession numbers X00588 and X03363 respectively) were cloned and expressed in the baculovirus/Sf21 system. […]
(§3) Constitutive kinase activity of these recombinant proteins was determined by their ability to phosphorylate a synthetic peptide (made up of a random co-polymer of Glutamic Acid, Alanine and Tyrosine in the ratio of 6:3:1). […]
(§4) The immobilised phospho-peptide product of the reaction was detected by immunological methods. […] After further washing, HRP activity in each well of the plate was measured colorimetrically using 22′-Azino-di-[3-ethylbenzthiazoline sulfonate (6)] diammonium salt crystals (ABTS™ from Roche) as a substrate.
(§5) Kinase inhibition for a given compound was expressed as an IC50 value. […] The range of phosphorylation was calculated from the positive (vehicle plus ATP) and negative (vehicle minus ATP) control values.

EGFR kinase = molecular target: T2, EGFR kinase (Homo sapiens, UniProt P00533); assay: Protein tyrosine kinase phosphorylation assay, Test (a): EGFR; assay type: biochemical
T2 construct: Recombinant intracellular fragments of EGFR and erbB2; made in house; host or cells: baculovirus/Sf21 insect cells
Experimental: as §1, §2, §3, §4, §5

**Q.** How did the IC50 (erbB2 [1]) turn out when `C[C@H](CN(C)C)Oc1cccc2ncnc(Nc3ccc(OCc4cnccn4)c(Cl)c3)c12` [Example 24, N-[3-Chloro-4-(pyrazin-2-ylmethoxy)phenyl]-5-[(1R)-2-(dimethylamino)-1-methylethoxy]quinazolin-4-amine] was run?
**A.** 1 nM

**Q.** What about the IC50 (erbB2 [2]) of the same molecule?
**A.** 2 nM

**Q.** And the IC50 (EGFR kinase)?
**A.** 64 nM
